The experiment relates to rats. Kind of experiment: Tail-flick test in the rat after sc administration. Background: In hot-plate and tail-flick tests a longer latency is read as antinociception.

The structures appear in SMILES notation.

Turning to `CC(C)(C)OC(=O)CN[C@@H]1CC[C@@]2(OCCCc3ccccc3)[C@H]3Cc4ccc(O)c5c4[C@@]2(CCN3CC2CC2)[C@H]1O5` [Compound 16], under “more potent than 18”, the “antinociceptive potency relative to derivative 18” value is recorded as “about 6 fold”.
Regarding `Cl.Cl.O=C(O)CN[C@@H]1CC[C@@]2(OCCCc3ccccc3)[C@H]3Cc4ccc(O)c5c4[C@@]2(CCN3CC2CC2)[C@H]1O5` [Compound 18, [[17-Cyclopropylmethyl-4,5α-epoxy-3-hydroxy-14β-[(3-phenylpropyl)oxy]morphinan-6β-yl]amino]acetic Acid Dihydrochloride], the “peak of action, time postinjection” value was “two hours”.

These data come from article PMC3041239 (Journal of Medicinal Chemistry, 2011).
